{"source": "patent US5792622A", "about": "“Assay for chemicals” (priority 1995, dated 1998)", "origin": "cited, not measured here", "tested_on": "fish (trout fingerlings)", "conditions": "Table 8, trout fingerlings; cited from earlier work", "data": [{"compound": "c1ccccc1", "note": "[Benzene]", "values": [{"measurement": "Fish LD50 (50% death of the fish)", "value": "10-100 ppm"}]}]}
